Measured values taken from patent US6274557A, “Inhibition of nitric oxide synthase by amino acids and dipeptides” (Northwestern University, priority 1999, dated 2001).

Tests used:
[1] = molecular target: neuronal nitric oxide synthase (nNOS) from bovine brain (Bos taurus, UniProt A0A3Q1M6M2); test: Hemoglobin capture assay of nitric oxide formation, nNOS; details: N-substituted L-arginines, ratio of the inverse of the Ki values (IC50 for methyl, ethyl)
[2] = molecular target: T1, recombinant bovine endothelial nitric oxide synthase (eNOS) (Bos taurus, UniProt P29473); test: Hemoglobin capture assay of nitric oxide formation, eNOS; type: biochemical
[3] = molecular target: T1, recombinant bovine endothelial nitric oxide synthase (eNOS); test: as above; type: biochemical; design: made in house; host or cells: E. coli
[4] = listed as N^ω -propargyl-L-arginine

SMILES | Selectivity nNOS/eNOS [1] | Selectivity nNOS/iNOS [1] | Selectivity nNOS/eNOS [1, 4] | Selectivity nNOS/iNOS [1, 4] | Ki [2] [µM] | IC50 [3] [µM]
C#CCNC(=N)NCCC[C@H](N)C(=O)O [propargyl, N^ω -propargyl-L-arginine, reference compound] | 1.9 | 1.4 | less than 2 | less than 2 | 0.81 | –
CNC(=N)NCCC[C@H](N)C(=O)O [methyl, N^ω -methyl-L-arginine, reference compound] | – | – | – | – | – | 5.9
